Two molecules from patent publication US20220106400A1 (Bristol-Myers Squibb, published 2022) can be followed below.

In the experiment the target is T1, human GITR (human, UniProt Q9Y5U5 26-241).
T1 sequence (looked up): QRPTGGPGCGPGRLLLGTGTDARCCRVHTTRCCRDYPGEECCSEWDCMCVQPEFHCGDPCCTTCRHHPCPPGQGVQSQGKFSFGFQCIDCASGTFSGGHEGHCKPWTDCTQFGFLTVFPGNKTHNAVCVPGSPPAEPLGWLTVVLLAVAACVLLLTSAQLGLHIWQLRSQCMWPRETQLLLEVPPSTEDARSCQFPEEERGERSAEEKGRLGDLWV
Kind of experiment: cell-based or functional assay.

B1: GITR.6.G2.G1f (antibody, human IgG2, kappa)
heavy: QVQLVESGGGVVQPGRSLRLSCAASGFTFSSYGMHWVRQAPGKGLEWVAVIWYEGSNKYYADSVKGRFTISRDNSKNTLYLQMNSLRAEDTAVYYCARGGSMVRGDYYYGMDVWGQGTTVTVSSASTKGPSVFPLAPCSRSTSESTAALGCLVKDYFPEPVTVSWNSGALTSGVHTFPAVLQSSGLYSLSSVVTVPSSNFGTQTYTCNVDHKPSNTKVDKTVERKCCVE[human IgG1 Fc skipped]
light: AIQLTQSPSSLSASVGDRVTITCRASQGISSALAWYQQKPGKAPKLLIYDASSLESGVPSRFSGSGSGTDFTLTISSLQPEDFATYYCQQFNSYPYTFGQGTKLEIKRTVAAPSVFIFPPSDEQLKSGTASVVCLLNNFYPREAKVQWKVDNALQSGNSQESVTEQDSKDSTYSLSSTLTLSKADYEKHKVYACEVTHQGLSSPVTKSFNRGEC
As for B1, the “NFKB signaling in TCR activated CD4+ T cells, EC50” value is 9 nM; the “NFKB signaling in TCR activated CD4+ T cells, Emax” value came out at 100%; the “NFKB signaling in TCR activated CD8+ T cells, EC50” value amounted to 3.77 nM; the “NFKB signaling in TCR activated CD8+ T cells, Emax” value amounted to 92%.

B2: GITR.6-IgG1f (antibody)
heavy: QVQLVESGGGVVQPGRSLRLSCAASGFTFSSYGMHWVRQAPGKGLEWVAVIWYEGSNKYYADSVKGRFTISRDNSKNTLYLQMNSLRAEDTAVYYCARGGSMVRGDYYYGMDVWGQGTTVTVSSASTKGPSVFPLAPSSKSTSGGTAALGCLVKDYFPEPVTVSWNSGALTSGVHTFPAVLQSSGLYSLSSVVTVPSSSLGTQTYICNVNHKPSNTKVDKRV[human IgG1 Fc skipped]
light: AIQLTQSPSSLSASVGDRVTITCRASQGISSALAWYQQKPGKAPKLLIYDASSLESGVPSRFSGSGSGTDFTLTISSLQPEDFATYYCQQFNSYPYTFGQGTKLEIKRTVAAPSVFIFPPSDEQLKSGTASVVCLLNNFYPREAKVQWKVDNALQSGNSQESVTEQDSKDSTYSLSSTLTLSKADYEKHKVYACEVTHQGLSSPVTKSFNRGEC
As to B2, the “NFKB signaling in TCR activated CD4+ T cells, EC50” value turned out to be 7.3 nM; the “NFKB signaling in TCR activated CD4+ T cells, Emax” value is 10.8%; the “NFKB signaling in TCR activated CD8+ T cells, EC50” value worked out at 20.1 nM; the “NFKB signaling in TCR activated CD8+ T cells, Emax” value worked out at 27%.
